# RAD54 inh: RAD54 (human) branch migration inhibition. Q92698. RAD54 Holliday junction branch migration, FAM/BHQ fluorescence. inhibition, % at 10.4 µM. 0.14% of 360,000 active;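 active = mean normalized replicate activity at least 40 and at least half of replicates scoring 40 or more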;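 also: 0% = median of neutral control wells and 100% = median of positive control wells; inhibitors cause a drop in the FAM fluorescence signal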
# SIRT5 block: sirtuin-5 (human) deacylase inhibition | Purified SirT5, succinyl-peptide AMC, trypsin-coupled fluorescence | inhibition, % at 15 µM | Q9NXA8 | 1.1% of 330,000 active; in the data active = inhibition above about 15%
# AF4-AF9 inh: blocks AF4 peptide binding to human AF9. P42568. AlphaScreen, biotin-AF4 peptide binding to FLAG-AF9. inhibition, % at 10 µM. 0.47% of 350,000 active. AID 651704;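 active = every replicate reaching a set inhibition limit, whatever the replicate mean, cut at about 25% in these data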;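 also: 0% = plate neutral control median and 100% = total signal loss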
# E-sel inducer: E-selectin induction on HUVECs. P16581. HUVEC E-selectin immunofluorescence imaging; normalized: neutral wells 0, TNF-alpha wells 100. activation, % at 7.58 µM. 0.37% of 260,000 active. AID 686992;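 active = mean E-selectin-positive cell signal at least 10% of the positive control, reached in at least 60% of replicates, without over 20% cell loss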
#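 assay system = HUVEC, human umbilical vein endothelial cells | input = 3,000 HUVEC seeded per well | medium = EGM-2 growth medium on 0.1% gelatin-coated wells | dosing = one compound dose added by pin transfer | signal = immunofluorescence imaging | read-out basis = % PE-positive cells | control set = TNF-alpha, DMSO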
# RAD52 anneal inh: blocks human RAD52 DNA annealing; inhibition, % at 18.7 µM; recombinant RAD52 DNA annealing, FRET fluorescence; AID 651710; 0.46% of 360,000 active;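 active = every replicate showing at least 50% inhibition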
# Yeast UUG start: modulators of start codon recognition fidelity in yeast; AID 602363; activity score, % at 18.7 µM; S. cerevisiae UUG-firefly luciferase reporter, luminescence/redox ratio; actives 0.13% (n = 350,000);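 active = replicate mean at a twofold rise or more, about +100% in these data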;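 note: firefly luciferase made from a UUG start codon reports start codon fidelity; reporter light over untreated wells divided by growth signal over untreated wells; some hits fall short of that in this replicate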
# * hit, by the source's call; . = not tested or not shown. A selection: hits, their analogues and other compounds. The true share with any hit is near 1.8%.
SMILES,RAD54 inh,SIRT5 block,AF4-AF9 inh,E-sel inducer,RAD52 anneal inh,Yeast UUG start
CO[C@H]1CN(C)C(=O)c2cc(NC(=O)c3ccc(F)cc3)ccc2OC[C@H](C)N(C(=O)c2ccc(F)cc2)C[C@H]1C,8.2,-1.1,2.3,0.0,-4.3,0.8
O=C(CN1C(=O)C2C3CC(C(Br)C3Br)C2C1=O)Nc1ccc(C(=O)O)cc1 (stereo not given),2.4,23.1*,10.3,-0.2,-15.0,-13.6
CCCN(C)C[C@@H]1OCCCC[C@@H](C)Oc2ccc(NS(=O)(=O)c3ccc(Cl)cc3)cc2C(=O)N([C@@H](C)CO)C[C@@H]1C,-3.9,3.1,3.9,-0.2,25.3,9.5
COc1ccc(NC(=O)Nc2ccc3c(c2)CC(=O)N([C@H](C)CO)C[C@@H](C)[C@H](CN(C)C(=O)Nc2ccc(C(F)(F)F)cc2)O3)cc1,4.1,.,.,.,.,38.2
COc1ccc(CC2(C)OC(c3ccc([N+](=O)[O-])cc3)=NN2C(C)=O)cc1 (stereo not given),.,-3.0,27.4*,-3.1,-11.1,.
CN(CCCC1CCCC1)C(=O)CCc1nnc(-c2ccccc2)o1,-0.6,4.7,47.5*,.,1.4,-2.6
Cc1cc(C(=O)N/N=C2/CC(C)CC(C)(C)C2)c(C)o1 (stereo not given),.,41.3*,2.7,-0.4,-7.6,.
COC(=O)c1ccc(CSc2nnc(CS(=O)Cc3ccc(Br)cc3)n2-c2ccccc2)cc1 (stereo not given),-6.6,18.0*,3.3,0.3,-12.4,-2.1
C[C@H](CO)N1C[C@H](C)[C@@H](CN(C)Cc2ccc3c(c2)OCO3)Oc2ccc(NS(=O)(=O)c3cn(C)cn3)cc2C1=O,0.4,-17.6,-1.1,.,-4.6,-17.8
COc1ccc2c3c(n(C)c2c1)[C@H](CO)NCC31CCN(C(C)=O)CC1,.,.,-3.2,0.0,.,.
COc1ccc(NC(=O)N2CCCCN3[C@H](CO)[C@@H](c4ccc(-c5ccccc5F)cc4)[C@@H]3C2)cc1,6.9,18.3*,-2.6,-0.3,55.7*,4.1
O=C(Nc1ccccc1F)N1CCCCN2[C@H](CO)[C@@H](c3ccc(C4=CCCCC4)cc3)[C@H]2C1,-11.1,4.1,19.1,.,55.8*,3.1
COc1ccc(NC(=O)N2CCCCN3[C@H](CO)[C@@H](c4ccc(-c5ccccc5F)cc4)[C@H]3C2)cc1,5.2,-2.0,3.3,-0.1,51.5*,2.8
COc1ccc(NC(=O)N2CCCCN3[C@H](C2)[C@@H](c2ccc(-c4ccccc4F)cc2)[C@@H]3CO)cc1,8.0,7.6,-9.4,1.4,35.6,3.2
COc1ccc(NC(=O)N2CCCCN3[C@H](CO)[C@H](c4ccc(-c5ccccc5F)cc4)[C@H]3C2)cc1,21.7,-1.9,-1.5,6.1,56.6*,-1.3
COCCN(C[C@H]1[C@H](c2ccccc2)[C@@H](CO)N1C(C)=O)C(=O)c1ccncc1,5.5,0.9,-1.0,-0.1,-14.8,-4.0
COc1ccc(NC(=O)N2CCCCN3[C@@H](CO)[C@@H](c4ccc(C5=CCCC5)cc4)[C@@H]3C2)cc1,-13.2,6.4,13.1,.,53.8*,5.6
CO[C@H]1CN(C)C(=O)c2cc(NC(C)=O)ccc2OC[C@@H](C)N(CCc2ccccc2)C[C@@H]1C,-5.6,1.5,6.3,-0.2,-3.7,1.4
COc1cc(NC(=O)COC(=O)CO/N=C(\C)c2ccc3c(c2)OCO3)cc(OC)c1OC,.,-0.5,-0.7,180.4*,5.7,.
COc1ccccc1N=C1SC(C(=O)Nc2cccc(Cl)c2Cl)C(N)=C1C(N)=O (stereo not given),.,21.3*,-29.5,0.3,-22.6,.
N#Cc1ccccc1NC(=O)C1SC(=Nc2ccccc2)C(C(=O)Nc2ccc(Cl)cc2)=C1N (stereo not given),3.8,0.1,1.3,.,11.3,-9.3
COC(=O)C1=C(C)NC(=O)/C1=C\c1cccs1,0.7,.,.,.,.,-14.8
COC(=O)C1=C(C)NC(=O)/C1=C\N(C)C,.,0.1,-4.5,38.7*,-56.4,.
Cc1ccccc1C1=C/C(=C(\SS/C(C(=O)c2ccc(OCC(=O)O)c(Cl)c2Cl)=C2\C=C(c3ccccc3C)SS2)C(=O)c2ccc(OCC(=O)O)c(Cl)c2Cl)SS1,.,68.6*,10.9,-4.0,7.6,.
O=C(CCS(=O)(=O)Cc1ccccc1)Nc1nncs1,.,18.8*,-1.7,0.0,-10.0,.
COc1ccccc1-c1ccc2c(c1)O[C@@H](CN(C)Cc1ccc3c(c1)OCO3)[C@H](C)CN([C@@H](C)CO)S2(=O)=O,-3.8,23.3*,0.1,.,5.6,0.5
COc1ccccc1-c1ccc2c(c1)O[C@@H](CN(C)Cc1ccc3c(c1)OCO3)[C@@H](C)CN([C@H](C)CO)S2(=O)=O,-5.0,17.2*,2.0,.,7.9,7.3
C[C@@H]1CN([C@@H](C)CO)S(=O)(=O)c2ccc(-c3cccc(C(=O)N(C)C)c3)cc2O[C@H]1CN(C)Cc1ccc2c(c1)OCO2,-9.0,19.4*,0.6,.,14.5,4.8
CC(C)NC(=O)Nc1ccc2c(c1)C(=O)N([C@H](C)CO)C[C@H](C)[C@@H](CN(C)C(=O)c1ccccc1)OCCCC[C@@H](C)O2,9.7,0.0,-4.5,0.6,17.3,10.7
COc1ccccc1-c1ccc2c(c1)O[C@@H](CN(C)S(=O)(=O)c1ccc(F)cc1)[C@@H](C)CN([C@@H](C)CO)S2(=O)=O,1.4,23.0*,2.1,0.0,0.3,.
COc1ccccc1-c1ccc2c(c1)O[C@@H](CN(C)S(=O)(=O)c1ccc(F)cc1)[C@@H](C)CN([C@H](C)CO)S2(=O)=O,2.6,20.4*,-1.4,0.0,-0.2,.
COc1ccccc1-c1ccc2c(c1)O[C@H](CN(C)S(=O)(=O)c1ccc(F)cc1)[C@H](C)CN([C@@H](C)CO)S2(=O)=O,12.3,18.0*,0.2,0.5,13.0,.
O=C(CC1CC1)N1[C@H](CO)[C@@H](c2ccccc2)C12CN(Cc1cccnc1)C2,.,-3.1,3.3,1.1,0.3,.
O=C(O)Cn1cc(C(=O)C(F)(F)F)c2ccccc21,-2.7,-0.6,-1.0,49.3*,-2.8,-3.4
O=C1[C@H]2[C@@H](c3ccccc3)N[C@]3(CCCN(Cc4ccccc4)C3=O)[C@H]2C(=O)N1Cc1ccccc1,1.2,6.4,1.2,.,-9.6,-0.6
CCN1C(=O)[C@H]2[C@@H](c3ccccc3)N[C@]3(CCCN(Cc4ccccc4)C3=O)[C@H]2C1=O,-10.7,23.6*,-0.3,-0.1,-7.4,-17.5
COc1ccc([C@H]2N[C@]3(CCCN(Cc4cccn4C)C3=O)[C@H]3C(=O)N(C)C(=O)[C@@H]23)cc1,-5.1,34.2*,1.3,-0.1,-7.0,-8.0
CCC(=O)N1[C@@H]2Cn3c(ccc(-c4ccc(F)cc4)c3=O)[C@H]1[C@@H](C(=O)N(C)C)[C@@H]2CO,-1.6,-33.5,-1.6,0.1,-4.7,.

# Complete entries as entered above. Screens in order: RAD54 inh | SIRT5 block | AF4-AF9 inh | E-sel inducer | RAD52 anneal inh | Yeast UUG start
# `COc1ccc([C@H]2N[C@]3(CCCN(Cc4cccn4C)C3=O)[C@H]3C(=O)N(C)C(=O)[C@@H]23)cc1` reads -5.1 | 34.2* | 1.3 | -0.1 | -7.0 | -8.0
# `COc1ccccc1-c1ccc2c(c1)O[C@@H](CN(C)Cc1ccc3c(c1)OCO3)[C@@H](C)CN([C@H](C)CO)S2(=O)=O` reads -5.0 | 17.2* | 2.0 | . | 7.9 | 7.3
# `C[C@@H]1CN([C@@H](C)CO)S(=O)(=O)c2ccc(-c3cccc(C(=O)N(C)C)c3)cc2O[C@H]1CN(C)Cc1ccc2c(c1)OCO2` reads -9.0 | 19.4* | 0.6 | . | 14.5 | 4.8
# `CC(C)NC(=O)Nc1ccc2c(c1)C(=O)N([C@H](C)CO)C[C@H](C)[C@@H](CN(C)C(=O)c1ccccc1)OCCCC[C@@H](C)O2` reads 9.7 | 0.0 | -4.5 | 0.6 | 17.3 | 10.7

# Screening results (PubChem BioAssay)
